The results in this text go back to patent publication US20220296547A1, “METHODS AND COMPOSITIONS FOR TREATMENT OF DISEASES” (Tranexamic Technologies, LLC, priority 2020, published 2022).

Each structure is given as a SMILES string.

The subject of test [1] is HCI-012/LVM2/LR10 drug-resistant, HER2+, metastatic breast cancer. The experiment in a line: Breast tumor growth in patient-derived model. It counts as in vivo, mice. The following applies: treatment day 20; 375 mg/kg orally once daily; P value of 0.035.
For test [2], the system named is B16 murine melanoma tumors. The following applies: topically once daily for five consecutive days, 20%.

As for `NC[C@H]1CC[C@H](C(=O)O)CC1` [tranexamic acid], the “tumor volume, vehicle group relative to treatment group” value in test [1] is recorded as “eight-fold”. Besides, the “death of melanoma cells (hematoxylin and eosin tumor sections)” value in test [2] is “killed melanoma cells adjacent to the skin”.
